Test results: patent publication US11802108B2, “Compounds for the modulation of cyclophilins function” (The University Court of The University of Edinburgh, priority 2018, dated 2023)
Where two headings read alike, the source gives them in different places.

Chains of the proteins cited; added tags and fusions are not shown. Residues count along the entry.
UniProt P62937, whole entry: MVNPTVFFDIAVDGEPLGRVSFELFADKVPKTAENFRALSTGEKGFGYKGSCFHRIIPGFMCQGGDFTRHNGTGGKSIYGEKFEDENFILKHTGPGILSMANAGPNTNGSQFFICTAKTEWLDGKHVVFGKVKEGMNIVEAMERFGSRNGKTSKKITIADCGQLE
UniProt P23284, 34-216: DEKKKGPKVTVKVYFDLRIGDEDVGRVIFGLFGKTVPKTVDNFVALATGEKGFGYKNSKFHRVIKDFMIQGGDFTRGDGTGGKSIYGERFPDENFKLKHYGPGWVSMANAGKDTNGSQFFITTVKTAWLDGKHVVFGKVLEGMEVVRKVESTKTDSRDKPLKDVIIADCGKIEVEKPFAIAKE
UniProt P30405, 30-207: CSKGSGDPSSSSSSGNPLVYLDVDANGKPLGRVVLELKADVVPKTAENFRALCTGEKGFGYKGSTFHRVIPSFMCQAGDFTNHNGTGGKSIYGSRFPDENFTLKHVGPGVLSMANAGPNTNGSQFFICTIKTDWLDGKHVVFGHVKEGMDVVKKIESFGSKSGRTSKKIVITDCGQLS

Key:
[1] = target: T1, CypA (Homo sapiens (Human), UniProt P62937); experiment: Isothermal titration calorimetry (ITC) binding to CypA; conditions: 25° C.
Protocol: All ITC experiments for the ester series compounds were carried out at 25° C. on a MicroCal Auto iTC200 (GE Healthcare) instrument. The buffer used in the titrations of the compounds belonging to the ester series was 50 mM phosphate buffer, pH 6.5 and the concentration of DMSO was 2% v/v for all the compounds, unless otherwise stated in Table 51. Final compound solutions were heated to 65° C. and/or sonicated prior to the experiment. Each experiment consisted of an initial injection of 0.4 μL followed by nineteen 2 μL injections and in most of cases for these compounds, the “continue injections” protocol was used leaving the cell intact and performing a second series of titrations using the above protocol to achieve saturation. Control experiments were performed, where each compound was titrated into buffer and when small amount of heat was detected due to heat of dilution, it was subtracted when processing the data using a linear fit method. In all cases the first injection was omitted from the data processing. All data were analysed using the MicroCal PEAQ-ITC Analysis software.
The buffer used for these titrations was: PBS, 0.05% v/v P20 surfactant, 50 μM EDTA in presence of 2% v/v EtOH and the pH was set to 7.4.

[2] = target: T1, CypA; experiment: X-ray co-crystal structure with CypA; type: binding; conditions: apo CypA crystals soaked with 5 mM ligand; also: key: Y: observed in cocrystal; N: not observed in cocrystal
Protocol: Purified and his-tag-cleaved CypA was buffer-exchanged into PBS and concentrated to ˜29 mg ml^−1. For crystallisation 1 μL of protein was mixed with an equal volume of the well solution, consisting of 100 mM Tris-HCl pH8.0 and 20-22% v/v PEG 8000, and crystal formation came about after equilibration overnight in 6° C. by vapour diffusion using the hanging drop method over 1 mL of the same well solution. Apo CypA crystals were soaked overnight into different ligand solution consisting of 100 mM Tris-HCl pH 8.0, 35% w/v PEG 8000, 5% v/v Glycerol, 5% v/v DMSO and 5 mM ligand, before flash frozen into liquid nitrogen. X-ray data were collected at the Diamond synchrotron-radiation facility in Oxford-shire, England at 100K. Structures were solved by molecular replacement using DIMPLE from the CCP4i suite. Modelled structures were visualised and manually adjusted as needed using Coot10 and further refined using REFMAC5 from CCP4i.
FIG. 1A summarises the mode of binding of certain prior-art urea small molecule Cyp inhibitors.

[3] = target: T1, CypA; experiment: Surface plasmon resonance (SPR) binding to His-CypA; conditions: 25° C., triplicate
Protocol: (§1) SPR measurements were performed on a BIAcore T200 instrument (GE Healthcare). Ni^2+-nitrilotriacetic acid (NTA) sensor chips, 1-ethyl-3-(3-[…]) carbodiimide hydrochloride (EDC) and Nhydroxysuccinimide (NHS) were purchased from GE Healthcare.
(§2) Pure His-cyclophilins were immobilized and covalently stabilized on the NTA sensor chip according to the protocol described in Thermo-kinetic analysis space expansion for cyclophilin-ligand interactions—identification of a new nonpeptide inhibitor using Biacore T200.
(§3) Single cycle kinetic titration binding experiments were performed using SPR in triplicate at 25° C. […] The sensor surface was regenerated between experiments by dissociating any formed complex in running buffer for at least 1,200 seconds.
(§4) Kinetic titration binding experiments were performed in triplicate at 25° C. […] The sensor surface was regenerated between experiments by dissociating any formed complex in running buffer for at least a further 600 seconds.

[4] = target: CypB (Homo sapiens (Human), UniProt P23284); experiment: Surface plasmon resonance (SPR) binding to His-CypB
Protocol: as §3, §4

[5] = target: CypD (Homo sapiens (Human), UniProt P30405); experiment: Surface plasmon resonance (SPR) binding to His-CypD; conditions: 25° C., triplicate
Protocol: as §1, §2, §3, §4

With `Cl.Cn1cc(CN(Cc2ccc(N)cc2)C(=O)NCC(=O)N2CCCC2c2ccccc2Br)nn1` (stereo not shown) [Compound 3, 1-[(4-aminophenyl)methyl]-3-{2-[2-(2-bromophenyl)pyrrolidin-1-yl]-2-oxoethyl}-1-[(1-methyl-1H-1,2,3-triazol-4-yl)methyl]urea hydrochloride] the Kd [1] was roughly 1 µM, the “CypA X-ray co-crystal” value [2] was “Y” and the Kd [3] was 1.7 ± 1 µM. It also gave a Kd ([4]; SPR, 25° C., triplicate, read-out: CypB Kd (SPR)) of 0.3 ± 0.2 µM and a Kd [5] of 2.9 ± 1.2 µM.
In the case of `Cl.Cn1cc(CN(Cc2ccc(N)cc2)C(=O)NCC(=O)N2CCCC2c2ccccc2Br)nn1` (stereo in doubt) [Compound 7, 1-[(4-aminophenyl)methyl]-3-{2-[(2S)-2-(2-bromophenyl)pyrrolidin-1-yl]-2-oxoethyl}-1-[(1-methyl-1H-1,2,3-triazol-4-yl)methyl]urea hydrochloride], the Kd [1] is reported as 3 ± 0.5 µM, the “CypA X-ray co-crystal” value [2] is reported as “Y” and the Kd [3] is reported as 4.5 ± 1 µM. For the same compound, the Kd [4] was 0.7 ± 0.4 µM and the Kd [5] was 4.7 ± 2.9 µM.
